Values of other authors, collected in paper PMC3463529.

Biological target: GFP (Aequorea victoria) [GFP: P42212]
Experiment: analytical ultracentrifugation
Settings: cited from earlier work

In the case of GFP (from UniProt P42212), the Kd is listed as 100 µM.
